# Laboratory results from patent publication US20190119300A1, “SUBSTITUTED AND FUSED 6-MEMBERED PROTEASE ACTIVATED RECEPTOR 4 (PAR-4) ANTAGONISTS” (Vanderbilt University, priority 2016, published 2019).
# pIC50: −log10 of the molar value.
# Columns and labels:
# PAR-4 [1] = target: T1, PAR-4 (Homo sapiens, UniProt Q96RI0); test: PAC-1 binding assay, washed platelets stimulated with PAR-4-AP (flow cytometry); type: cell-based; conditions: PAR-4-AP stimulation, read-out: PAR-4 AP % Max PAC-1 binding (IC50 [M])
# T1 construct: endogenous in cells; host or cells: washed platelets
# T1 sequence (Q96RI0 18-385): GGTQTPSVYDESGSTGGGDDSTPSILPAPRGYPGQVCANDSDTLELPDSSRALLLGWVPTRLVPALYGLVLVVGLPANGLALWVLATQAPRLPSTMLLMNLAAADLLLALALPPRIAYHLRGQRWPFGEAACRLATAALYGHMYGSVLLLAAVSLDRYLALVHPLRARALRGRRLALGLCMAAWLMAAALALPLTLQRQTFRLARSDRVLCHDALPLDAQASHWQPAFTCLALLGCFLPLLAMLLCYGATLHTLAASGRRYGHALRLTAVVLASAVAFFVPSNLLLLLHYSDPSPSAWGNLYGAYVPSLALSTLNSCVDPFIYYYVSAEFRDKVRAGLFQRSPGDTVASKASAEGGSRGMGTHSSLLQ
# Description: (§1) PAC-1 Binding assay: 60 μL of washed platelets (Tyrodes buffer containing 0.1% BSA) at a concentration of 0.15×10^8 platelets/mL were added to 5 mL round bottom polystyrene tubes (BD, Franklin Lakes, N.J.). FITC conjugated PAC-1 (BD Biosciences, San Jose, Calif.) antibody was diluted (to the manufacturers recommended concentration) in Tyrode's buffer containing 0.1% BSA. 40 μL of diluted antibody was added to the platelets and allowed to incubate for 5 minutes. Platelets were pre-treated with indicated concentrations of antagonist or DMSO control for 20 minutes (the final DMSO concentration was 0.5%) followed by addition of PAR-1-AP (GL Biochem, Shanghai, China), PAR-4-AP, or gamma-thrombin for 10 minutes. Platelet activity was quenched by the addition ice cold 1.5% paraformaldehyde followed by dilution in 1× phosphate buffered saline. Platelets were stored up to 18 hours at 4° C. before flow cytometric analysis. Analysis was carried out on a BD FACS Canto II or BD LSRII (Franklin Lakes, N.J.). Fluorescent intensity was determined for at least 20,000 events within the platelet gate (forward scatter versus side scatter). Data was collected and analyzed via FACS DiVa or FlowJo software. Flow cytometric data analysis was conducted by the following method. The DMSO-vehicle treated control was subtracted from each data point. 100% response for PAR-4-AP was determined for each individual as the DMSO treated control stimulated with PAR-4-AP, PAR-1-AP, or gamma-thrombin. Data was plotted in GraphPad PRISM v.5.0. For compounds with a notable reduction in PAC-1 binding response, dose response curves and IC50 values were generated using the inhibitory sigmoidal dose response ‘variable slope’ parameter. Results were plotted as mean±SEM.
# PAR-4 [2] = target: T1, PAR-4; test: PAC-1 binding assay, washed platelets stimulated with 100 nM gamma-thrombin (flow cytometry); type: cell-based; conditions: for pIC50: 100 nM γ-thrombin stimulation
# Description: Gamma-thrombin is a proteolytic product of alpha-thrombin cleavage by a serine protease. Cleavage results in the disruption of exosite I which interacts directly with the hirudin-like domain of its primary substrates fibrinogen and protease-activated receptor 1 (PAR1). As a result, gamma-thrombin selectively cleaves PAR4 in the nanomolar range, leaving PAR1 intact. See Soslau, G., Class, R., Morgan, D. A., Foster, C., Lord, S. T., Marchese, P., and Ruggeri, Z. M. (2001) Unique pathway of thrombin-induced platelet aggregation mediated by glycoprotein Ib, The Journal of biological chemistry 276, 21173-21183. Gamma-thrombin (Enzyme Research Laboratories, South Bend, Indiana) is produced by trypsin-sepharose cleavage of alpha-thrombin. To neutralize alpha-thrombin contamination, stock solutions of gamma-thrombin are preincubated with 1 unit/mL hirudin prior 100 fold dilution into the sample for platelet stimulation. This concentration of hirudin is capable of abolishing alpha-thrombin activity with no effect on the activity of gamma-thrombin. See Soslau, G., Goldenberg, S. J., Class, R., and Jameson, B. (2004) Differential activation and inhibition of human platelet thrombin receptors by structurally distinct alpha-, beta- and gamma-thrombin, Platelets 15, 155-166. Single point screens and concentration response curves are conducted with 316 nanomolar or 100 nanomolar gamma-thrombin using PAC1 and CD62p binding.
# as §1
IC50 (PAR-4 [1]),pIC50 (PAR-4 [2]),"IC50 (PAR-4 [2]; read-out: 100 nM γ-thrombin PAC-1 activity (IC50 [M]), 100 nM γ-thrombin stimulation)",SMILES
4e-08 M,6.23,–,COc1nn2cc(-c3ccc(Cl)cc3)nc2s1 [Example B19]
3e-08 M,6.02,–,COc1nn2cc(-c3ccc(Cl)c(Cl)c3)nc2s1 [Example B20]
4.6e-08 M,< 6.00,–,COc1nn2cc(-c3cccc(C(F)(F)F)c3)nc2s1 [Example B3]
6.88e-08 M,< 6.00,–,COc1nn2cc(-c3ccc(F)c(C(F)(F)F)c3)nc2s1 [Example B29]
1.3e-06 M,–,–,COc1nn2cc(-c3c(F)cccc3F)nc2s1 [Example B4]
1.6e-08 M,–,3.48e-07 M,COc1nn2cc(-c3ccc(C(F)(F)F)cc3)nc2s1 [Example B1]
1.24e-08 M,6.58,–,COc1nn2cc(-c3ccc(OC(F)(F)F)cc3)nc2s1 [Example B27]
